{
  "sequences": {"note": "The chains behind the UniProt entries cited, without tags or fusion partners.", "UniProt P35368, whole entry": "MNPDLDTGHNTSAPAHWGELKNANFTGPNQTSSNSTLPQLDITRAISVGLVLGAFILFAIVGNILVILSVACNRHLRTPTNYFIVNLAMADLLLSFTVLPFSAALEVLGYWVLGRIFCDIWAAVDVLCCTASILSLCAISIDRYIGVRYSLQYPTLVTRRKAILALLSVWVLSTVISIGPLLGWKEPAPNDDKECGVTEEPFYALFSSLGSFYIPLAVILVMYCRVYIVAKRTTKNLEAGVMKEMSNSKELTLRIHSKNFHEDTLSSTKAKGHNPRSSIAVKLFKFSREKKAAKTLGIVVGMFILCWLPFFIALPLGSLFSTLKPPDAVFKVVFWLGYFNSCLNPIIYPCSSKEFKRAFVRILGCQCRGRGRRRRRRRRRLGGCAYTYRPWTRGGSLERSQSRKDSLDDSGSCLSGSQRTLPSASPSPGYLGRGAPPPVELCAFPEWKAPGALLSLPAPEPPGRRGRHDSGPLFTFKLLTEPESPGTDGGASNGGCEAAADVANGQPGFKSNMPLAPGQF"},
  "source": "BindingDB's records for doi:10.1124/jpet.105.087809",
  "about": "(Universit&Aagrove, 2005)",
  "target": "Alpha-1B adrenergic receptor (Homo sapiens, UniProt P35368)",
  "data": [
    {"smiles": "O=C(CCCN1CCC2(CC1)C(=O)NCN2c1ccccc1)c1ccc(F)cc1", "note": "[8-[4-(4-fluorophenyl)-4-oxidanylidene-butyl]-1-phenyl-1,3,8-triazaspiro[4.5]decan-4-one]", "values": [
      {"measurement": "Ki", "result": 3.09, "unit": "nM"}
    ]}
  ]
}
